{
  "sequences": {"note": "The chains behind the UniProt entries cited, without tags or fusion partners. Where a name states a change or a piece, a line headed by the entry shows the natural chain unless it says otherwise.", "UniProt P41145": "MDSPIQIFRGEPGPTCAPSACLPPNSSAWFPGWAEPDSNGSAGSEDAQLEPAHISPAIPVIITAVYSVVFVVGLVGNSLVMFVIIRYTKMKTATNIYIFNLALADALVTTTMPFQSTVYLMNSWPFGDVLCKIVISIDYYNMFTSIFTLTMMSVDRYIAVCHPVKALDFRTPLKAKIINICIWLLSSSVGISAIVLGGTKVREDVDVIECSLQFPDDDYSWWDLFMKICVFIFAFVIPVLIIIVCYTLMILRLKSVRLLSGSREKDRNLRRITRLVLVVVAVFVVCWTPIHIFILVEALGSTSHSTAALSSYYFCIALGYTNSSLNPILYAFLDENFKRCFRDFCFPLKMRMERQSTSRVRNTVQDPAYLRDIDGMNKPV"},
  "source": "ChEMBL document CHEMBL4196036",
  "about": "“Benzomorphan scaffold for opioid analgesics and pharmacological tools development: A comprehensive review” (Eur J Med Chem, 2018)",
  "molecular_target": "Kappa-type opioid receptor (Homo sapiens, UniProt P41145)",
  "assay": "Agonist activity at human KOR expressed in CHO cell membranes assessed as stimulation of [35S]GTPgammaS binding after 60 mins by scintillation counting method",
  "assay_type": "functional, cell-based",
  "data": [
    {"smiles": "CC1C2Cc3ccc(C(N)=O)cc3C1(C)CCN2CC1CC1", "note": "(racemic)", "values": [
      {"measurement": "EC50", "result": 8.8, "unit": "nM"}
    ]}
  ]
}
